Test system: TOV112D (ovarian cancer, p53-R175H) cells
Assay: Intracellular [Zn2+]free imaging with FluoZin-3-AM, TOV112D
Assay type: cell-based, human
Settings: for increase of intracellular [Zn2+]free (FZ3 fluorescence): complete media

Structure (SMILES)	t1/2 of intracellular [Zn2+]free increase (ZMC1 and ZnCl2, EBSS/H (−)Ca/Mg, mean±SD, n=4) [min]	increase of intracellular [Zn2+]free (FZ3 fluorescence)
C/C(=N\NC(=S)N1CCC1)c1ccccn1 [Compound 6, (E)-N′-(1-(pyridin-2-yl)ethylidene)azetidine-1-carbothiohydrazide]	2.6 ± 0.833	increased intracellular [Zn^2+]free
O=C(O)CN(CC(=O)O)CC(=O)O [NTA, reference compound]	–	did not
C/C(=N\NC(=O)N1CCC1)c1ccccn1 [Compound 10, (E)-N′-(1-(pyridin-2-yl)ethylidene)azetidine-1-carbohydrazide]	–	did not

— patent publication US10604481B2, “(Thio, oxo and seleno) semicarbazone complexes with zinc and their use for treating cancer” (RUTGERS, THE STATE UNIVERSITY OF NEW JERSEY, priority 2015, dated 2020)
